Paper PMC10579241, “Impact of trifluoromethyl and sulfonyl groups on the biological activity of novel aryl-urea derivatives: synthesis, in-vitro, in-silico and SAR studies” (Scientific Reports, 2023)
Marks after values point to notes of the source that are not given here.

Tested on: A549
Test: DNA damage, comet assay, A549
Format: cell-based, human

COc1cccc2c1C(=O)c1c(O)c3c(c(O)c1C2=O)C[C@@](O)(C(=O)CO)C[C@@H]3O[C@H]1C[C@H](N)[C@H](O)[C@H](C)O1 [Doxorubicin, reference compound]
DNA damaged cells % (mean ± SEM): 21.52 ± 1.04^a %
